The values below come from US12661336B2, “Polymorphs of phenyl pyrrole aminoguandium salts” (SYNACT PHARMA APS, priority 2021, dated 2026).

A short description of this data set: Equilibrium solubility at pH 4.5 and pH 6.8 at 37° C., WHO Technical Report Series 1019 protocol (Table 44). The class given is physicochemical.

As to “N-{3-[1-(2-nitrophenyl)-1H-pyrrol-2-yl]-allylidene}-aminoguanidinium succinate [AP1189 succinate]”, under “buffer pH 4.5, 22 h”, the “Equilibrium solubility pH 4.5” value was 370 mg ± 3 mg/250 mL. For the same substance, where the note is “buffer pH 6.8, 22 h”, the “Equilibrium solubility pH 6.8” value is listed as 261 mg ± 13 mg/250 mL.
